Compound activity (PubChem BioAssay)
PKA-R2B activ: activators of PKA-R2B holoenzyme, primary screen, biochemical, fluorescence polarization, Cy5-IP20, human; cAMP-dependent protein kinase catalytic subunit beta (Homo sapiens) + cAMP-dependent …; PKA-R2B holoenzyme dissociation; R2B truncated from residue 108, S112A mutant; 0% DMSO only, 100% 113 µM cGMP; activation, % at 11.4 µM; actives 0.079% (n = 340,000); AID 504700, 2011;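 active = activation above a cutoff set at the mean over all compounds plus 3 SD, cut at about 18% in these data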;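 note: higher means more holoenzyme dissociation and a rise in polarization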
PKA-R1A activ: activators of PKA-R1A holoenzyme, primary screen, biochemical, fluorescence polarization, Cy5-IP20, bovine R1A, mouse PKAc | cAMP-dependent protein kinase type I-alpha regulatory subunit (Bos taurus) + … | PKA-R1A dissociation; scaled: DMSO 0%, 113 µM cGMP 100% | activation, % at 11.4 µM | actives 0.083% (n = 340,000) | AID 504707, 2011;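 active = percent activation above the mean of all tested compounds plus 3 SD, cut at about 19% in these data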;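 note: higher means more PKAc released from R1A so a rise in polarization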
p-CIP stab down: p/CIP-EGFP fusion destabilizers, primary screen, fluorescence, F442A cells. Q05BA5. 16 h. decrease of EGFP signal, % at 10 µM. actives 0.01% (n = 290,000);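 active = EGFP signal decrease of at least 30% at 10 µM or well 3 SD below plate mean, unless failing retest; inactive = the rest, including hits failing retest or dose response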
Granule exo inh: LAMP-1 surface exposure blockers, TALL-104 cells – cell-based, flow cytometry, MLPCN library, primary screen | TALL-104 LAMP-1 surface exposure; cells stimulated with thapsigargin and PMA | inhibition, % at 10 µM | actives 0.66% (n = 360,000) | AID 651702, 2012;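 active = inhibition above about 55%, limit read from the data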
Yeast UUG start: yeast start codon fidelity modulation; activity score, % at 18.7 µM; actives 0.13% (n = 350,000); S. cerevisiae UUG-firefly luciferase reporter, luminescence/redox ratio; AID 602363;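 active means replicate mean at a twofold rise or more, about +100% in these data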;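 further: firefly luciferase made from a UUG start codon reports start codon fidelity; reporter light over untreated wells divided by growth signal over untreated wells; some hits fall short of that in this replicate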
ABCB6 inh MLPCN: ABCB6 transporter inhibitors, primary screen, K562-ABCB6 cells, flow cytometry, MLPCN library; K562-ABCB6 porphyrin accumulation, 1 h; active compounds read low; fluorescence ratio to DMSO, % at 10 µM; actives 0.19% (n = 360,000);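 active = fluorescence ratio to DMSO below 75%, the collection mean minus 3 SD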;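 note: signal is porphyrin accumulated inside mitochondria; 100% equals median channel fluorescence of DMSO control wells; lower ratio means ABCB6 inhibition with less porphyrin fluorescence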
The depositor's hits bear a star; nt = not tested or not shown. In the library only some 0.94% were active in any assay of this set; here they are far more common.

SMILES	PKA-R2B activ	PKA-R1A activ	p-CIP stab down	Granule exo inh	Yeast UUG start	ABCB6 inh MLPCN
O=[N+]([O-])c1cc(S(=O)(=O)Oc2ccccc2)ccc1Cl	-5	-8	nt	80*	nt	99
O=S(=O)(Oc1ccccc1)c1ccc(Cl)c(Cl)c1	-1	5	nt	-5	16	97
O=C(C[C@H]1CC[C@H](NC(=O)Cc2cccnc2)[C@H](CO)O1)NCc1ccc2c(c1)OCO2	nt	nt	nt	nt	-14	nt
COc1cc(N2C(=O)C=CC2=O)ccc1N1C(=O)C=CC1=O	3	-2	nt	82*	nt	101
COc1ccc(N2C(=O)C3CC(C)=C(C)CC3C2=O)c(OC)c1 (stereo not drawn)	6	10	-11	-2	-5	95
N#C/C(=C\Nc1ccccc1O)c1nc2ccccc2o1	5	-9	8	86*	-22	100
C[C@@H]1CCCCO[C@@H](CN(C)CC2CCCCC2)[C@@H](C)CN([C@H](C)CO)C(=O)c2cc(NS(=O)(=O)c3cn(C)cn3)ccc2O1	nt	nt	nt	nt	1	nt
COC(=O)c1cccc(C23CC4(C2)[C@H](CN(Cc2ccc(C(F)(F)F)cc2)[C@@H]4c2ccccc2)C3c2ccc(Cl)nc2)c1 (stereo partly drawn)	-16	-5	0	77*	5	102
COC(=O)c1cccc(C23CC4(C2)[C@H](CN(Cc2ccc(C(F)(F)F)cc2)[C@@H]4c2ccccc2)C3c2ccc(C(F)(F)F)cc2)c1 (stereo partly drawn)	nt	nt	5	nt	nt	nt
CCn1cc(C(=O)NC2CCCc3c2cnn3-c2cccc(C)c2C)cn1 (stereo not drawn)	1	-5	-16	3	4	65*

Retrieved by compound from the entries so far:
SMILES	PKA-R2B activ	PKA-R1A activ	p-CIP stab down	Granule exo inh	Yeast UUG start	ABCB6 inh MLPCN
COc1cc(N2C(=O)C=CC2=O)ccc1N1C(=O)C=CC1=O	3	-2	nt	82*	nt	101
COC(=O)c1cccc(C23CC4(C2)[C@H](CN(Cc2ccc(C(F)(F)F)cc2)[C@@H]4c2ccccc2)C3c2ccc(C(F)(F)F)cc2)c1 (stereo partly drawn)	nt	nt	5	nt	nt	nt
O=S(=O)(Oc1ccccc1)c1ccc(Cl)c(Cl)c1	-1	5	nt	-5	16	97

The listing continues.
SMILES	PKA-R2B activ	PKA-R1A activ	p-CIP stab down	Granule exo inh	Yeast UUG start	ABCB6 inh MLPCN
COc1ccc(-c2csc(/C(C#N)=C\c3ccc(O)c([N+](=O)[O-])c3)n2)cc1OC	5	-9	7	93*	14	97
CCCC(=O)Nc1ccc2c(c1)C(=O)N(C)[C@@H]1CC[C@@H](CC(=O)Nc3ccccc3)O[C@H]1CO2	nt	nt	nt	nt	15	nt
CCOC(=O)N1CCC2(CC1)C(C(=O)C13CC4CC(CC(C4)C1)C3)C2(C#N)C#N (stereo not drawn)	-4	-16	-14	71*	7	101
CC(SC#N)C(=O)C12CC3CC(CC(C3)C1)C2 (stereo not drawn)	-17	-6	10	-2	nt	102
CN1CCN(CCCNC(=O)c2ccc(/C=C3/Sc4ccccc4N(Cc4cccc(Cl)c4)C3=O)cc2)CC1	0	5	-7	75*	-17	98
CCN1CCN(CCNC(=O)c2ccc(/C=C3\Sc4ccccc4N(Cc4ccccc4F)C3=O)cc2)CC1	-13	-1	-20	72*	nt	98
CC(=O)N(C)C[C@@H]1Oc2ncc(C#Cc3ccccn3)cc2C(=O)N([C@@H](C)CO)C[C@H]1C	nt	nt	nt	nt	8	nt
CC(C)COc1ccc(CNC(=S)N/N=C/c2ccc([N+](=O)[O-])cc2)cc1	-3	10	-2	-2	-23	101
CCCOc1ccc(CNC(=S)N/N=C/c2ccc([N+](=O)[O-])cc2)cc1	-4	8	6	0	-23	62*
O=C(C1CC1)N1CCCCN2[C@@H](CO)[C@@H](c3ccc(-c4cccc(F)c4)cc3)[C@@H]2C1	nt	nt	nt	nt	1	nt
CN(C)CCCN(C(=O)/C=C/c1cccs1)c1nc2c(F)cccc2s1	-8	-17	-2	57*	nt	104
COc1cccc(C(=O)Nc2ccc3c(c2)OC[C@@H](C)N(C(=O)C2CCCC2)C[C@H](C)[C@@H](OC)CN(C)C3=O)c1	nt	nt	nt	nt	14	nt
Cc1cccc(C)c1-n1nnnc1-c1nc2cc(Br)ccc2[nH]c1=O	nt	nt	nt	77*	nt	103
